The target of one assay is mPD-L1 (Mus musculus, UniProt Q9EP73). In words: SPR (Biacore T200), immobilized purified protein, […] model. Background: In SPR one partner is held on a chip, and binding of the other changes the refractive index at the surface.
The next assay deals with mPD-1 (Mus musculus, UniProt Q02242). The description is as above.

The chains behind the UniProt entries cited, without tags or fusion partners. Residues count along the entry.
UniProt Q9EP73, 19-290 limits assumed: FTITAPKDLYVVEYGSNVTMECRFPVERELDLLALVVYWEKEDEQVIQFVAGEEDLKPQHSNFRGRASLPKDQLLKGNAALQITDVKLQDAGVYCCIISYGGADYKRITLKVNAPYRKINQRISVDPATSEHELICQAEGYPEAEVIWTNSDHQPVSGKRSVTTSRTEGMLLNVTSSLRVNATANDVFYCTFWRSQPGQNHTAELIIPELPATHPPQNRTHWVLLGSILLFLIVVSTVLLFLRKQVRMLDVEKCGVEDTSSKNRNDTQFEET
UniProt Q02242, 25-169 limits assumed: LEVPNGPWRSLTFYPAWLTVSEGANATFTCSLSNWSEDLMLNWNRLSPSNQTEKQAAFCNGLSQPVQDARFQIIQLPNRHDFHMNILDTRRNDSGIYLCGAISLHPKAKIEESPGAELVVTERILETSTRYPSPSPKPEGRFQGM

Data on one compound can be found in publication PMC8160380.

The term Kd denotes the equilibrium constant for the complex coming apart. For `COc1cc(OCc2cccc(-c3ccccc3)c2C)cc(OC)c1CN1CCCCC1C(=O)O` (centres unmarked), the dissociation constant Kd on mPD-L1 came to 125 nM; at mPD-1 it was 41.6 nM.
